The source of these data is US20250195530A1, “POLQ INHIBITORS” (ASTRAZENECA AB, priority 2022, published 2025).

Protein sequences, listed by entry. Tags and fused reporters are not part of them. Residues count along the entry.
UniProt O75417, 1780-2590: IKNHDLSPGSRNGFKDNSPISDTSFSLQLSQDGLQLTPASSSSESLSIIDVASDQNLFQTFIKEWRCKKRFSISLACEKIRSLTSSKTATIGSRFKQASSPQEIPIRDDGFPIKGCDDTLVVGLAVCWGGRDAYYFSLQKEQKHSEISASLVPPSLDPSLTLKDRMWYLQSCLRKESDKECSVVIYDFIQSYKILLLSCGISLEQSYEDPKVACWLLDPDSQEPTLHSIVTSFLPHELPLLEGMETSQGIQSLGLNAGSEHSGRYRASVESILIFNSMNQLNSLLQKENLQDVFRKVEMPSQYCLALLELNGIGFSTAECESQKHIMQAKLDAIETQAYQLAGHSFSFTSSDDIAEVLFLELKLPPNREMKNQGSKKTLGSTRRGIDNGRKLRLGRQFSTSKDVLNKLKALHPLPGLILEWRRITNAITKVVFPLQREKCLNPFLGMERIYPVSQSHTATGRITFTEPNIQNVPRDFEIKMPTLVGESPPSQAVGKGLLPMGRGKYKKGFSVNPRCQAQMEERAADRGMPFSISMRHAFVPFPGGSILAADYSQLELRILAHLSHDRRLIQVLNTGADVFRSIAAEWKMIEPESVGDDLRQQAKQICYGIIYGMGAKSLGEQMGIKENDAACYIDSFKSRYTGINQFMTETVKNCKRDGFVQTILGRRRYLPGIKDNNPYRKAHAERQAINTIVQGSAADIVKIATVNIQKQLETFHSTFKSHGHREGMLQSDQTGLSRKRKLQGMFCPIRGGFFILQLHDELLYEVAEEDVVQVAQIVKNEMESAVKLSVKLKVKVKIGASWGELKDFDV

The target in the assay is isolated polymerase domain (I1780-V2590) of DNA polymerase theta (Polθ) (Homo sapiens (Human), UniProt O75417). Put plainly: biochemical.

In turn, `COc1ccc(C#N)cc1Cn1c(-c2ccc(OCCC(C)C(=O)O)cc2Cl)nc2c(OC3(C)CC3)ncnc21` (racemic) [Example U14, 4-(3-chloro-4-(9-(5-cyano-2-methoxybenzyl)-6-(1-methylcyclopropoxy)-9H-purin-8-yl)phenoxy)-2-methylbutanoic acid] showed an IC50 of 5.01 nM.

`CC(CCOc1ccc(-c2nc3c(OC4(C)CC4)ncnc3n2Cc2cc(C#N)ccc2F)c(Cl)c1)C(=O)O` (racemic) [Example U18, 4-(3-chloro-4-(9-(5-cyano-2-fluorobenzyl)-6-(1-methylcyclopropoxy)-9H-purin-8-yl)phenoxy)-2-methylbutanoic acid] showed an IC50 of 6.31 nM.

For `CC(COc1ccc(-c2nc3c(OC4(C)CC4)ncnc3n2Cc2ccccc2C#N)c(Cl)c1)CC(=O)O` (racemic) [Example U25, 4-(3-chloro-4-(9-(2-cyanobenzyl)-6-(1-methylcyclopropoxy)-9H-purin-8-yl)phenoxy)-3-methylbutanoic acid], 10 nM corresponded to half-maximal inhibition (IC50).

`CC(CCOc1ccc(-c2nc3c(OC4(C)CC4)ncnc3n2Cc2cc(C(F)(F)F)cc(Cl)c2F)c(Cl)c1)C(=O)O` (racemic) [Example U35, 4-(3-chloro-4-(9-(3-chloro-2-fluoro-5-(trifluoromethyl)benzyl)-6-(1-methylcyclopropoxy)-9H-purin-8-yl)phenoxy)-2-methylbutanoic acid] had an IC50 of 10 nM.

The molecule `Cc1ccc(Cl)cc1Cn1c(-c2ccc(OCCC(C)C(=O)O)cc2Cl)nc2c(OC3(C)CC3)ncnc21` (racemic) [Example U36, 4-(3-chloro-4-(9-(5-chloro-2-methylbenzyl)-6-(1-methylcyclopropoxy)-9H-purin-8-yl)phenoxy)-2-methylbutanoic acid] gave an IC50 of 6.31 nM.

`CC(CCOc1ccc(-c2nc3c(OC4(C)CC4)ncnc3n2Cc2cccc(Cl)c2C#N)c(Cl)c1)C(=O)O` (racemic) [Example U37, 4-(3-chloro-4-(9-(3-chloro-2-cyanobenzyl)-6-(1-methylcyclopropoxy)-9H-purin-8-yl)phenoxy)-2-methylbutanoic acid]: inhibition was half-maximal at 20 nM (IC50).

In turn, `COc1ccc(Cl)cc1Cn1c(-c2ccc(OCC(C)CC(=O)O)cc2Cl)nc2c(OC3(C)CC3)ncnc21` (racemic) [Example U42, 4-(3-chloro-4-(9-(5-chloro-2-methoxybenzyl)-6-(1-methylcyclopropoxy)-9H-purin-8-yl)phenoxy)-3-methylbutanoic acid] gave an IC50 of 7.94 nM.

Regarding `CC(COc1ccc(-c2nc3c(OC4(C)CC4)ncnc3n2Cc2cc(Cl)ccc2F)c(Cl)c1)CC(=O)O` (racemic) [Example U45, 4-(3-chloro-4-(9-(5-chloro-2-fluorobenzyl)-6-(1-methylcyclopropoxy)-9H-purin-8-yl)phenoxy)-3-methylbutanoic acid], the midpoint of inhibition, the IC50, lay at 5.01 nM.

Regarding `COc1ncc(Cl)cc1Cn1c(-c2ccc(OCCC(C)C(=O)O)cc2Cl)nc2c(OC3(C)CC3)ncnc21` (racemic) [Example U53, 4-(3-chloro-4-(9-((5-chloro-2-methoxypyridin-3-yl)methyl)-6-(1-methylcyclopropoxy)-9H-purin-8-yl)phenoxy)-2-methylbutanoic acid], the IC50 is 20 nM.

Regarding `COc1ccc(Cl)cc1Cn1c(-c2cccc(CCCC(C)C(=O)O)c2Cl)nc2c(OC3(C)CC3)ncnc21` (racemic) [Example U55, 5-(2-chloro-3-(9-(5-chloro-2-methoxybenzyl)-6-(1-methylcyclopropoxy)-9H-purin-8-yl)phenyl)-2-methylpentanoic acid], the IC50 was 6.31 nM.

Consider `COc1ccc(Cl)cc1Cn1c(-c2ccc(CCCC(C)C(=O)O)cc2Cl)nc2c(OC3(C)CC3)ncnc21` (racemic) [Example U56, 5-(3-chloro-4-(9-(5-chloro-2-methoxybenzyl)-6-(1-methylcyclopropoxy)-9H-purin-8-yl)phenyl)-2-methylpentanoic acid], for which half-maximal inhibition (IC50) required 6.31 nM.
